Measured values reported in patent publication US20150133512A1, “N-ARYLTRIAZOLE COMPOUNDS AS LPAR ANTAGONISTS” (Hoffmann-La Roche Inc,, priority 2012, published 2015).

Sequences of proteins named here, by UniProt entry; tags and fusion partners are left off. A change or cut given only in a name is not applied to a line headed by its entry.
UniProt Q92633: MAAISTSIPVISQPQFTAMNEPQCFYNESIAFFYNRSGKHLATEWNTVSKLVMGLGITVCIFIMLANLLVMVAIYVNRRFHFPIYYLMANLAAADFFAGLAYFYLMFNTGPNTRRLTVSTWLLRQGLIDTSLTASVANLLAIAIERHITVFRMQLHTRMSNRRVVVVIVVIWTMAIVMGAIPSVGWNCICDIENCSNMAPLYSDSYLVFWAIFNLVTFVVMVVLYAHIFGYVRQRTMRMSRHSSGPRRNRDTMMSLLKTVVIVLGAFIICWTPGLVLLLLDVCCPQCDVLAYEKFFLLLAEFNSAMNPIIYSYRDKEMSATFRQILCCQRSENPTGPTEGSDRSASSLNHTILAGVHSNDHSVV

Biological target: human recombinant LPA1 Lysophospholipid receptor (Homo sapiens, UniProt Q92633)
Assay: Calcium flux assay using FLIPR, LPA1 antagonist activity
Type: cell-based
Details: ChemiScreen Calcium-optimized stable cell line; antagonist mode, inhibition of agonist-induced calcium flux
Protocol: Calcium Flux Assay Using Fluorometric Imaging Plate Reader (FLIPR)
Cell Culture Conditions: The ChemiScreen Calcium-optimized stable cell line containing the human recombinant LPA1 Lysophospholipid receptor was purchased from Chemicon International, Inc./Millipore. The cells were cultured in DMEM-high glucose supplemented with 10% fetal bovine serum, 2 mM glutamine, 100 U/mL penicillin/100 μg/mL streptomycin, 1× non-essential amino acids, 10 mM HEPES and 0.25 mg/mL Geneticin. Cells were harvested with trypsin-EDTA and counted using ViaCount reagent. The cell suspension volume was adjusted to 2.0×10^5 cells/mL with complete growth media. […]
After incubation, both the cell and “assay” plates were brought to the FLIPR and 20 μL of the diluted compounds were transferred to the cell plates by the FLIPR. Compound addition was monitored by FLIPR to detect any agonist activity of the compounds. […] During the assay, fluorescence readings were taken simultaneously from all 384 wells of the cell plate every 1.5 seconds. Five readings were taken to establish a stable baseline, then 20 μL of sample was rapidly (30 μL/sec) and simultaneously added to each well of the cell plate. The fluorescence was continuously monitored before, during and after sample addition for a total elapsed time of 100 seconds. Responses (increase in peak fluorescence) in each well following agonist addition was determined. […]

Cc1nnn(-c2ccc(-c3ccc(C4(C(=O)O)CC4)cc3)cc2)c1NC(=O)O[C@H](C)c1ccccc1F [Example 5, 1-(4′-{5-[(R)-1-(2-Fluoro-phenyl)-ethoxycarbonylamino]-4-methyl-[1,2,3]triazol-1-yl}-biphenyl-4-yl)-cyclopropanecarboxylic acid]
IC50: 35 nM
